# Data reported in patent US20020183518A1, “Modulators of proteins with phosphotyrosine recognition units” (ONTOGEN CORPORATION, priority 1995, published 2002).
# Chains of the proteins cited; added tags and fusions are not shown. Residues count along the entry.
# UniProt P18031, 3-277 limits assumed: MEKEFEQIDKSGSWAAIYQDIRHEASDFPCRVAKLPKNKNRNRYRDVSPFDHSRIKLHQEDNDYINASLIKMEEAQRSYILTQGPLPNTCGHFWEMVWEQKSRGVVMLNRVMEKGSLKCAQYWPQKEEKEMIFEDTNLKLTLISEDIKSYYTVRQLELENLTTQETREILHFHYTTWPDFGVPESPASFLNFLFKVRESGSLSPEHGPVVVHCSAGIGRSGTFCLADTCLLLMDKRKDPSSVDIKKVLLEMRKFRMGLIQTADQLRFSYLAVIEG
# UniProt P08575, 599-1306 limits assumed: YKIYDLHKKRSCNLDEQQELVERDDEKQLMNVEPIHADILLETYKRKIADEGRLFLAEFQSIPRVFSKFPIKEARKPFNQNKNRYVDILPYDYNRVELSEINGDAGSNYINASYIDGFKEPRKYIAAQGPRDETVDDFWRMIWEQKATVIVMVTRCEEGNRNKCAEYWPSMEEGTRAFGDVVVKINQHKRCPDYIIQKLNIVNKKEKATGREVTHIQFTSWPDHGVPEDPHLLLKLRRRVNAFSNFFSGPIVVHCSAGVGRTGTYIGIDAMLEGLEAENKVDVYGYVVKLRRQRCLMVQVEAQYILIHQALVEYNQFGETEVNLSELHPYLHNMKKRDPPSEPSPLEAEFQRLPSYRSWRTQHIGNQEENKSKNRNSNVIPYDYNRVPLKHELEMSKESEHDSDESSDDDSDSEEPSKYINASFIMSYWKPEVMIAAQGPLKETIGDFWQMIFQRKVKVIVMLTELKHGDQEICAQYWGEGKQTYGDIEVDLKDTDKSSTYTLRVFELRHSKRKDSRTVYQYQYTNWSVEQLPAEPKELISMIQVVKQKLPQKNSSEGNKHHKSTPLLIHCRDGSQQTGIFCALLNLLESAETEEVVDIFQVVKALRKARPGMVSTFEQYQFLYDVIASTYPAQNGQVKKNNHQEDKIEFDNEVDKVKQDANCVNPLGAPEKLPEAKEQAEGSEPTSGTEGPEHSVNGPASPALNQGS
# Assays:
# PTP-1B = PTP-1B (Homo sapiens, UniProt P18031); experiment: In vitro PTPase inhibition assay (pNPP, colorimetric), PTP-1B; type: biochemical; settings: read-out: IC50 values against PTP1B; Table 9; tested form: TFA
# Protocol: PTP-1B enzymatic activity of samples was assayed in microtiter plates as follows. The protein concentration of the PTP-1B enzyme preparation was determined using the Bio-Rad Protein Assay kit (Bio-Rad, Hercules Calif.). […] Reactions were mixed gently and incubated at 37° C. for 60 minutes. Enzymatic cleavage of phosphate from pNPP (a tyrosine phosphate analog) is marked by a colorimetric change in this substrate. See, e.g., Imbert et al., Biochem J., 297:163-173 (1994); Ghosh and Miller, Biochem. Biophys. Res. […] Zanke et al., Eur. J. […] To determine the enzymatic activity, absorbance readings of the reactions were measured at 405 nm using a Molecular Devices Thermomax Plate Reader (Menlo Park Calif.). […] Purified phosphatase was added to the reaction mixtures to begin the reactions; the reactions were incubated at 37° C. for 60 min. […] (for PTP-1C and PTPα assays), stopped, and colorimetrically analyzed as described above. […] First, absorbance readings from the negative control reactions were treated as a baseline and subtracted from the absorbance readings of the experimental reactions. Then, for each reaction, a percent inhibition was calculated using the following formula: […] For each inhibitor compound tested, an IC50 concentration was calculated from a best-fit computer analysis of the calculated percent inhibition for the various dilutions of the compound. […] The protein concentration of the PTP-1B enzyme preparation was determined using the Bio-Rad Protein Assay kit (Bio-Rad, Hercules Calif.). […] To determine the enzymatic activity, absorbance readings of the reactions were measured at 405 nm using a Molecular Devices Thermomax Plate Reader (Menlo Park Calif.). […] (for PTP-1C and PTPα assays), stopped, and calorimetrically analyzed as described above. […] First, absorbance readings from the negative control reactions were treated as a baseline and subtracted from the absorbance readings of the experimental reactions. Then, for each reaction, a percent inhibition was calculated using the following formula: […] […]
# CD45 = CD45 (Homo sapiens, UniProt P08575); experiment: In vitro PTPase inhibition assay (pNPP, colorimetric), CD45; type: biochemical; settings: read-out: IC50 values against CD45; Table 9; tested form: TFA
# Protocol: CD45 enzymatic activity of samples was assayed in microtiter plates as follows. […] Louis Mo.), and 80 ul of activity assay buffer (100 mM sodium acetate, pH 6.0, 1 mM EDTA, 0.1% Triton X-100, 15 mM bME). Reactions were mixed gently and incubated at 37° C. for 60 minutes. […] To determine the enzymatic activity, absorbance readings of the reactions were measured at 405 nm using a Molecular Devices Thermomax Plate Reader (Menlo Park Calif.). […] Purified phosphatase was added to the reaction mixtures to begin the reactions; the reactions were incubated at 37° C. for 60 min. […] (for PTP-1C and PTPα assays), stopped, and colorimetrically analyzed as described above. […] First, absorbance readings from the negative control reactions were treated as a baseline and subtracted from the absorbance readings of the experimental reactions. Then, for each reaction, a percent inhibition was calculated using the following formula: […] For each inhibitor compound tested, an IC50 concentration was calculated from a best-fit computer analysis of the calculated percent inhibition for the various dilutions of the compound. […] To determine the enzymatic activity, absorbance readings of the reactions were measured at 405 nm using a Molecular Devices Thermomax Plate Reader (Menlo Park Calif.). […] (for PTP-1C and PTPα assays), stopped, and calorimetrically analyzed as described above. […]
compound,measurement,setting,value
COc1ccc(-c2nc(-c3ccc(/C=C/C(=O)O)s3)n(CC(C)c3ccccc3)c2C(=O)NCCCCCC(=O)O)cc1 (centres unmarked),pIC50,PTP-1B,5.92
same,pIC50,CD45,4.70
O=C(O)/C=C/c1ccc(-c2nc(-c3ccc(Br)s3)[nH]c2-c2ccc(/C=C/C(=O)O)cc2)cc1,pIC50,PTP-1B,5.82
same,pIC50,CD45,6.01
CCCCNC(=O)c1[nH]c(-c2ccc(/C=C/C(=O)O)cc2)nc1-c1ccc(F)cc1,pIC50,PTP-1B,5.23

# pIC50: −log10 of the molar value.
